# “And” between values parts separate entries of the source, which are not always exact repeats. Identical values can stand only once.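 All cell lines were grown in 96-well plates and treated with compound for 48 hours. GI50 marks 50% less growth. At the TGI there is no net growth.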
# Columns and labels:
# Assay in all cases: NCI-60 cell line screen, 48 h
# [1] = system: A498 renal
# [2] = system: BT-549 breast
# [3] = system: CCRF-CEM leukemia
# [4] = system: DMS 273 small cell lung
# [5] = system: HCT-116 colon
# [6] = system: HCT-15 colon
# [7] = system: HL-60(TB) leukemia
# [8] = system: HOP-18 NSCLC
# [9] = system: HOP-92 NSCLC
# [10] = system: K-562 leukemia
# [11] = system: KM20L2 colon
# [12] = system: LOX IMVI melanoma
# [13] = system: LXFL 529 NSCLC
# [14] = system: MALME-3M melanoma
# [15] = system: MDA-MB-435
# [16] = system: MDA-N
# [17] = system: MOLT-4 leukemia
# [18] = system: NCI-H522 lung
# [19] = system: OVCAR-3 ovarian
# [20] = system: RPMI-8226 leukemia
# [21] = system: RXF 393 renal
# [22] = system: SK-MEL-5 melanoma
# [23] = system: SNB-75 CNS
# [24] = system: SNB-78 CNS
# [25] = system: SR leukemia
# [26] = system: SW-620 colon
# [27] = system: T-47D breast
# [28] = system: UACC-62 melanoma
structure (smiles),measurement,setting,value
C[C@@H](O)[C@H]1/C=C/C=C\C(=O)O[C@@H]2C[C@H]3O[C@@H]4[C@@H]5OC5(C)CCC4(COC(=O)[C@H]4O[C@]4(C)[C@@H](O)CO1)[C@]2(C)[C@]31CO1 (stereo partly specified),TGI,[1],13.2 nM and 62.9 nM
same,TGI,[2],3.16 nM
same,GI50,[3],0.506 nM
same,TGI,[3],81.5 nM and 26.6 nM
same,GI50,[4],8.72 nM
same,TGI,[4],27.3 nM and 15.4 nM
same,TGI,[5],54.1 nM and 28.3 nM
same,TGI,[6],20.7 nM and 48.1 nM
same,TGI,[7],1.02 nM
same,GI50,[8],39.2 nM and 179 nM
same,TGI,[8],278 nM and 1210 nM
same,TGI,[9],14.7 nM and 53 nM
same,GI50,[10],0.598 nM
same,TGI,[10],49.6 nM and 103 nM
same,GI50,[11],30.2 nM and 27 nM
same,TGI,[12],1.16 nM and 11.5 nM
same,GI50,[13],2.67 nM
same,TGI,[13],100 nM
same,TGI,[14],9.19 nM and 15.5 nM
same,GI50,[15],0.375 nM
same,TGI,[15],2.01 nM
same,GI50,[16],0.336 nM
same,TGI,[16],1.34 nM
same,TGI,[17],0.919 nM
same,TGI,[18],0.594 nM
same,TGI,[19],6.7 nM and 24.7 nM
same,TGI,[20],14.8 nM and 18 nM
same,TGI,[21],3.58 nM and 16.2 nM
same,TGI,[22],1.99 nM and 12.7 nM
same,TGI,[23],10.8 nM and 48.3 nM
same,GI50,[24],21.1 nM and 16.2 nM
same,TGI,[24],64.7 nM and 45.6 nM
same,GI50,[25],0.473 nM
same,TGI,[26],85 nM and 128 nM
same,TGI,[27],1.33 nM
same,TGI,[28],10.1 nM and 70 nM
